For test [1], the system named is breast cancer cell lines. Description: cells. The note with it: read-out: Growth Inhibition IC50.
In test [2] the test system is non small cell lung cancer (NSCLC) cell lines. Description: cells. To be noted: Homo sapiens, NCI-H520, 72 h, read-out: Average IC50 (μM).

pIC50: −log10 of the molar value. Like-named read-outs stand apart in the source and are kept apart here.

A word on the pIC50: it is the negative decadic logarithm of the IC50, by convention in mol/L. As a reminder, the IC50 is the concentration that gives 50% inhibition. Take `CNC(=O)c1ccc(Nc2nc(OC3CCCC3)c3c(-c4ccc(O)cc4)c[nH]c3n2)c(OC)c1` [Compound 3, 4-((4-(cyclopentyloxy)-5-(4-hydroxyphenyl)-7H-pyrrolo[2,3-d]pyrimidin-2-yl)amino)-3-methoxy-N-methylbenzamide]: the pIC50 in test [1] (HCC1500, 96 h) was 4.86; in test [1] (Homo sapiens, MDA-MB-134-VI, 96 h) it was 5.86. Further, the IC50 in test [2] was 1.45 µM.

For the origin of these results see patent US9623028B2 (dated 2017).
